Results: patent EP1903056A2, “HLA-A1, -A2 -A3, -A24, -B7, and -B44 tumor associated antigen peptides and compositions” (priority 2002, dated 2004)
Read-outs that look alike come from different tables or passages of the source.

Assays:
[1] = system: B44 supertype (B*1801, B*4001, B*4002, B*4402, B*4403, B*4501); test: B44 supertype cross-binding (degeneracy, number of alleles bound); set-up: species or system human; conditions: number of the six B44 alleles bound
B*4402 = B*4402 (Homo sapiens, UniProt P01889, A223V/A65T/A93T/A95T/D201E/D98Y/E176V/E187L/E204Q/E69K/G107R/H137Y/K202T/L105A/L119I/N104T/N87E/Q56L/Q94N/R106L/R155S/R180D/S101N/S121R/S35A/S48T/T118I/V36M/W191S/Y140D/Y91S); test: B44 supertype peptide binding, B*4402
B*4501 = B*4501 (Homo sapiens, UniProt P01889, A329T/A65T/A93T/A95T/C349S/D138N/D201E/D98Y/E176V/E187L/E204Q/E69K/H137Y/K202T/L119W/N87E/Q56L/Q94N/R155S/R180D/S121R/S35A/S48T/V127L/V306I/V36M/W191S/Y140L/Y33H/Y91S); test: B44 supertype peptide binding, B*4501
B*4002 (B61) = B*4002 (B61) (Homo sapiens, UniProt P01889, A65T/A93T/A95T/D138N/D201E/D98Y/E176V/E204Q/E69K/K202T/N87E/Q56L/Q94N/R180L/S48T/Y33H/Y91S); test: B44 supertype peptide binding, B*4002; conditions: read-out: B* 4002
B*4001(B60) = B*4001(B60) (Homo sapiens, UniProt P01889, A65T/A93T/A95T/D138N/D98Y/E176V/E69K/N87E/Q56L/Q94N/R180L/S121R/S35A/S48T/T167S/V36M/W171L/Y33H/Y91S); test: B44 supertype peptide binding, B*4001
[2] = Table 28: p53-derived B44 peptides
[3] = Table 28: p53-derived B44 peptides, read-out: B* 4402
[4] = Table 29: MAGE2-derived B44 peptides, read-out: B* 4501
[5] = Table 29: MAGE2-derived B44 peptides
[6] = Table 29: MAGE2-derived B44 peptides, read-out: B* 4402
[7] = Table 29: MAGE2-derived B44 peptides, read-out: B* 4001
[8] = Table 28: p53-derived B44 peptides, read-out: B* 4501

| Structure (SMILES) | Degeneracy [1, 2] | Degeneracy [1, 5] | IC50 (B*4402; [6]) | also measured |
| --- | --- | --- | --- | --- |
| CC(C)C[C@H](NC(=O)[C@H](CC(=O)O)NC(=O)[C@H](CO)NC(=O)[C@H](Cc1ccccc1)NC(=O)[C@@H](NC(=O)[C@H](CCC(=O)O)NC(=O)[C@@H](N)CCC(N)=O)[C@@H](C)O)C(=O)O | 0 | – | – | IC50 (B*4402; [3]): > 10 µM |
| CSCC[C@H](NC(=O)[C@H](CO)NC(=O)[C@H](CC(C)C)NC(=O)[C@H](CCC(=O)O)NC(=O)[C@H](CCC(=O)O)NC(=O)[C@@H](N)Cc1c[nH]c2ccccc12)C(=O)N[C@@H](CC(C)C)C(=O)N[C@@H](CCC(=O)O)C(=O)N[C@H](C(=O)N[C@@H](Cc1ccccc1)C(=O)O)C(C)C | – | 6 | – | IC50 (B*4501; [4]): 0.29 µM; IC50 (B*4002 (B61); [5]): 0.03 µM |
| CC(C)C[C@H](NC(=O)[C@@H](NC(=O)[C@H](CO)NC(=O)[C@H](CCC(=O)O)NC(=O)[C@@H](N)CC(C)C)C(C)C)C(=O)N[C@@H](CCCNC(=N)N)C(=O)N[C@@H](CC(N)=O)C(=O)N[C@@H](CS)C(=O)N[C@@H](CCC(N)=O)C(=O)N[C@@H](CC(=O)O)C(=O)N[C@@H](Cc1ccccc1)C(=O)O | – | 3 | 0.209 µM | IC50 (B*4001(B60); [7]): 5.41 µM |
| CSCC[C@H](NC(=O)[C@H](CCCNC(=N)N)NC(=O)[C@@H]1CCCN1C(=O)[C@H](C)NC(=O)[C@H](CCC(=O)O)NC(=O)[C@@H](N)CC(=O)O)C(=O)N1CCC[C@H]1C(=O)N[C@@H](CCC(=O)O)C(=O)N[C@@H](C)C(=O)O [compound 601] | 4 | – | – | IC50 (B*4402; [3]): 6.45 µM; IC50 (B*4002 (B61); [2]): 4.58 µM |
| CC(C)[C@H](NC(=O)[C@H](CCCNC(=N)N)NC(=O)[C@@H](NC(=O)[C@H](CCC(=O)O)NC(=O)[C@@H](N)Cc1ccccc1)C(C)C)C(=O)N[C@@H](CS)C(=O)N[C@@H](C)C(=O)N[C@@H](CS)C(=O)N1CCC[C@H]1C(=O)NCC(=O)O [compound 604] | 4 | – | – | IC50 (B*4501): 1.87 µM; IC50 (B*4001(B60)): 2.04 µM |
| CC(C)C[C@H](NC(=O)[C@H](CC(N)=O)NC(=O)CNC(=O)[C@H](CO)NC(=O)[C@H](CO)NC(=O)[C@H](CC(=O)O)NC(=O)[C@H](CCC(=O)O)NC(=O)[C@@H](N)CC(C)C)C(=O)O [compound 616] | 2 | – | – | IC50 (B*4402; [3]): > 10 µM |
| CC(C)C[C@H](NC(=O)[C@H](CC(C)C)NC(=O)[C@H](CC(N)=O)NC(=O)CNC(=O)[C@H](CO)NC(=O)[C@H](CO)NC(=O)[C@H](CC(=O)O)NC(=O)[C@H](CCC(=O)O)NC(=O)[C@@H](N)CC(C)C)C(=O)O [compound 617] | 2 | – | – | IC50 (B*4501; [8]): > 10 µM; IC50 (B*4402; [3]): 1.87 µM; IC50 (B*4002 (B61); [2]): 2.77 µM |
| CSCC[C@H](NC(=O)[C@H](CCC(=O)O)NC(=O)[C@H](Cc1ccccc1)NC(=O)[C@H](CCCNC(=N)N)NC(=O)[C@H](CCC(=O)O)NC(=O)[C@@H](N)CCCNC(=N)N)C(=O)N[C@@H](Cc1ccccc1)C(=O)O [compound 619] | 2 | – | – | IC50 (B*4501): > 10 µM; IC50 (B*4402): > 10 µM; IC50 (B*4002 (B61); [2]): 1.91 µM |
| CC(C)C[C@H](NC(=O)[C@@H]1CCCN1C(=O)[C@H](CO)NC(=O)[C@H](CC(C)C)NC(=O)[C@@H](NC(=O)[C@H](CC(N)=O)NC(=O)[C@H](CC(N)=O)NC(=O)[C@H](CCC(=O)O)NC(=O)[C@@H]1CCCN1)C(C)C)C(=O)O [compound 625] | 1 | – | – | IC50 (B*4501; [8]): > 10 µM |
| CC(C)C[C@H](NC(=O)[C@H](CC(N)=O)NC(=O)CNC(=O)[C@H](CCC(=O)O)NC(=O)[C@@H](N)C(C)C)C(=O)N[C@@H](CCCNC(=N)N)C(=O)N[C@H](C(=O)N[C@@H](CCC(=O)O)C(=O)N[C@@H](Cc1ccc(O)cc1)C(=O)O)C(C)C [compound 627] | 1 | – | – | IC50 (B*4501; [8]): > 10 µM; IC50 (B*4002 (B61); [2]): > 10 µM |
| CC(C)C[C@H](NC(=O)[C@@H](NC(=O)[C@H](CO)NC(=O)[C@H](CCC(=O)O)NC(=O)[C@@H](N)CC(C)C)C(C)C)C(=O)N[C@@H](CCCNC(=N)N)C(=O)N[C@@H](CC(N)=O)C(=O)N[C@@H](CS)C(=O)N[C@@H](CCC(N)=O)C(=O)N[C@@H](CC(=O)O)C(=O)N[C@@H](Cc1ccccc1)C(=O)N[C@@H](Cc1ccccc1)C(=O)O [compound 659] | – | 5 | 0.264 µM | IC50 (B*4001(B60); [7]): 0.246 µM |
| CC(C)C[C@H](NC(=O)[C@H](Cc1ccc(O)cc1)NC(=O)[C@H](CCC(=O)O)NC(=O)[C@@H](N)CO)C(=O)N[C@@H](CCC(N)=O)C(=O)N[C@@H](CC(C)C)C(=O)N[C@H](C(=O)N[C@@H](Cc1ccccc1)C(=O)O)C(C)C [compound 660] | – | 5 | 0.284 µM | IC50 (B*4001(B60); [7]): 0.765 µM |
| CC[C@H](C)[C@H](NC(=O)[C@H](Cc1ccc(O)cc1)NC(=O)[C@H](CC(C)C)NC(=O)[C@H](Cc1c[nH]cn1)NC(=O)[C@H](CO)NC(=O)[C@@H](NC(=O)[C@@H]1CCCN1C(=O)[C@@H](NC(=O)[C@@H](NC(=O)[C@H](CCC(=O)O)NC(=O)[C@@H](N)C(C)C)C(C)C)C(C)C)[C@@H](C)CC)C(=O)O [compound 661] | – | 5 | 0.335 µM | IC50 (B*4002 (B61); [5]): 0.146 µM |
| CC[C@H](C)[C@H](N)C(=O)N[C@@H](CCC(=O)O)C(=O)N[C@H](C(=O)N[C@@H](CO)C(=O)N[C@@H](Cc1ccc(O)cc1)C(=O)N[C@H](C(=O)N[C@@H](CCCCN)C(=O)N[C@H](C(=O)N[C@@H](CC(C)C)C(=O)O)C(C)C)C(C)C)[C@@H](C)O [compound 667] | – | 5 | – | IC50 (B*4501; [4]): 11.9 µM |
| CC(C)C[C@H](NC(=O)[C@H](CC(C)C)NC(=O)[C@H](CC(C)C)NC(=O)[C@H](Cc1ccccc1)NC(=O)[C@H](Cc1c[nH]cn1)NC(=O)[C@@H](NC(=O)[C@H](CC(C)C)NC(=O)[C@H](CCC(=O)O)NC(=O)[C@@H](N)C(C)C)C(C)C)C(=O)O [compound 672] | – | 4 | 0.559 µM | – |
| CC[C@H](C)[C@H](NC(=O)[C@H](Cc1ccc(O)cc1)NC(=O)[C@H](CC(C)C)NC(=O)[C@H](Cc1c[nH]cn1)NC(=O)[C@H](CO)NC(=O)[C@@H](NC(=O)[C@@H]1CCCN1C(=O)[C@@H](NC(=O)[C@@H](NC(=O)[C@H](CCC(=O)O)NC(=O)[C@@H](N)C(C)C)C(C)C)C(C)C)[C@@H](C)CC)C(=O)N[C@@H](CC(C)C)C(=O)N[C@H](C(=O)O)C(C)C [compound 679] | – | 4 | 0.562 µM | IC50 (B*4501; [4]): 0.839 µM; IC50 (B*4001(B60); [7]): 0.373 µM |
| CC(C)C[C@H](NC(=O)CNC(=O)[C@H](CC(C)C)NC(=O)[C@H](C)NC(=O)[C@H](CCC(=O)O)NC(=O)CN)C(=O)N[C@H](C(=O)NCC(=O)N[C@@H](C)C(=O)N[C@@H](CCC(N)=O)C(=O)N[C@@H](C)C(=O)O)C(C)C [compound 685] | – | 3 | – | – |
| CSCC[C@H](NC(=O)[C@H](CCCNC(=N)N)NC(=O)[C@@H]1CCCN1C(=O)CNC(=O)[C@H](CCC(=O)O)NC(=O)[C@H](CCC(=O)O)NC(=O)[C@H](CCC(=O)O)NC(=O)[C@@H](N)CCC(N)=O)C(=O)O [compound 687] | – | 3 | – | IC50 (B*4501; [4]): 6.73 µM |
| CC[C@H](C)[C@H](N)C(=O)N[C@@H](CCC(=O)O)C(=O)N[C@H](C(=O)N[C@H](C(=O)N[C@@H](CCC(=O)O)C(=O)N[C@H](C(=O)N[C@H](C(=O)N1CCC[C@H]1C(=O)N[C@H](C(=O)N[C@@H](CO)C(=O)N[C@@H](Cc1c[nH]cn1)C(=O)N[C@@H](CC(C)C)C(=O)N[C@@H](Cc1ccc(O)cc1)C(=O)O)[C@@H](C)CC)C(C)C)C(C)C)C(C)C)C(C)C [compound 691] | – | 3 | – | – |
| CC(C)C[C@H](NC(=O)[C@H](C)NC(=O)[C@H](CCC(=O)O)NC(=O)CNC(=O)[C@H](CCCNC(=N)N)NC(=O)[C@H](C)NC(=O)[C@H](CCC(=O)O)NC(=O)[C@@H](N)CC(C)C)C(=O)NCC(=O)O [compound 695] | – | 2 | – | – |
| C[C@H](NC(=O)[C@@H](NC(=O)[C@H](CCC(N)=O)NC(=O)[C@H](CCC(N)=O)NC(=O)[C@H](CCC(=O)O)NC(=O)[C@@H](N)CCC(=O)O)[C@@H](C)O)C(=O)N[C@@H](CO)C(=O)N[C@@H](CO)C(=O)N[C@@H](CO)C(=O)N[C@@H](CO)C(=O)N[C@H](C(=O)O)[C@@H](C)O [compound 706] | – | 1 | – | IC50 (B*4002 (B61); [5]): > 10 µM |
| CC(C)C[C@H](NC(=O)[C@H](Cc1ccc(O)cc1)NC(=O)[C@H](CCC(=O)O)NC(=O)[C@@H](N)CO)C(=O)N[C@@H](CCC(N)=O)C(=O)N[C@@H](CC(C)C)C(=O)N[C@H](C(=O)O)C(C)C [compound 709] | – | 1 | – | IC50 (B*4001(B60); [7]): 7.78 µM |
| CC[C@H](C)[C@H](NC(=O)[C@H](CCCCN)NC(=O)[C@H](CCC(=O)O)NC(=O)[C@H](CCC(=O)O)NC(=O)[C@@H]1CCCN1)C(=O)N[C@@H](Cc1c[nH]c2ccccc12)C(=O)N[C@@H](CCC(=O)O)C(=O)N[C@@H](CCC(=O)O)C(=O)N[C@@H](CC(C)C)C(=O)N[C@@H](CO)C(=O)N[C@@H](CCSC)C(=O)O [compound 715] | – | 0 | > 10 µM | IC50 (B*4001(B60); [7]): > 10 µM |
